Laboratory results reported in ChEMBL document CHEMBL1133756, “A potent aldose reductase inhibitor, (2S,4S)-6-fluoro-2', 5'-dioxospiro[chroman-4,4'-imidazolidine]-2-carboxamide (Fidarestat): its absolute configuration and interactions with the aldose reductase by X-ray crystallography” (J Med Chem, 2000).

Biological target: Aldo-keto reductase family 1 member B1 (Rattus norvegicus, UniProt P07943)
Test: Tested for in vitro inhibition activity against rat Aldose reductase (AR)

- IC50: 900 nM
SMILES: O=C1NC(=O)[C@@]2(CCOc3ccc(F)cc32)N1 [SORBINIL]
